Earlier results in EP4717267A1, “SYNERGISTIC COMBINATION FOR TREATING CANCER” (FUNDACION UNIVERSITARIA SAN ANTONIO (UCAM), priority 2023, dated 2024).
Where two headings read alike, the source gives them in different places.

System: MDA-MB-231 breast carcinoma cells
Conditions: cited from earlier work

COc1cccc2c1C(=O)c1c(O)c3c(c(O)c1C2=O)C[C@@](O)(C(=O)CO)C[C@@H]3O[C@H]1C[C@H](N)[C@H](O)[C@H](C)O1 [Doxorubicin, (7S,9S)-7-[(2R,4S,5S,6S)-4-amino-5-hydroxy-6 methyloxan-2-yl]oxy-6,9,11-trihydroxy-9-(2-hydroxyacetyl)-4-methoxy-8,10-dihydro-7H tetracene-5,12-dione]
MDA-MB-231 cell viability, of untreated control (0.05 nM Doxorubicin alone): 54%
MDA-MB-231 cell viability, of untreated control (0.1 nM Doxorubicin alone): 48%
